## AlphaSeq binding of Ab-91 heavy chain variants to a spike HR2 peptide

Data: MIT Lincoln Laboratory AlphaSeq set, Engelhart et al. 2022, doi:10.1038/s41597-022-01779-4, as distributed in FLAb.

Binding partner: SARS-CoV-2 spike HR2 peptide, sequence PDVDLGDISGINAS.

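The starting antibody came from a phage panning campaign against this peptide. Variants in AAYL51 differ from the parent at up to three CDR positions; double and triple changes were sampled at random. The assay is AlphaSeq: two haploid yeast populations carry antibody and antigen on their surface. Pairs that bind mate more often; barcode pairs of the diploids are counted by sequencing. Each replicate has its own calibration line, from reference interactions of the BCL2 family. Each pool was mated in three replicate cultures.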

Each scFv is VL, a (GGGGS)3 linker, VH, as in the parent Ab-91, and differs from it in the CDRs of the heavy chain only.
VL: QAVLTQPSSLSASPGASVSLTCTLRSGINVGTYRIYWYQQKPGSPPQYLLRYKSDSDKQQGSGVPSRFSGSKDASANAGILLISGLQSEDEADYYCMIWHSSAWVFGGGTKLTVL
VH: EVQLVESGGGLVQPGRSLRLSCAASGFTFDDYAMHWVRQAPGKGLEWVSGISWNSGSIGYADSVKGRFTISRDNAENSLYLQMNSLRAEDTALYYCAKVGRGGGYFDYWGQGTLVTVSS

Variants are written as CDR1, CDR2 and CDR3 of the heavy chain (limits as in the source). Parent: GFTFDDYAMH, GISWNSGSIGYADSVK, VGRGGGYFDY. The read-out is the apparent dissociation constant on a log10 scale (nM): the lower, the stronger. The mean shown is taken over the replicates in which the pair was detected. "nd" means that the variant was in the library but no mating with the target was seen in any replicate; the authors take this as a sign of poor binding, and no number exists.

With WFTFDDYAMH | GISWNSGSMMYADSVK | VGRGGGYFDY the result was nd (0 of 3 replicates; controls 0 of 9).
With GFTFTDYAMH | GISWNSGSIGYKDSVK | VGRGGGYFDY the result was nd (0 of 3 replicates; controls 0 of 9).
With GFTFDDYAMH | GINWNQGSIGYADSHK | VGRGGGYFDY the result was 3.67 (1 of 3 replicates; controls 5 of 9).
With GFTFDDYTMH | GISWNSGSIGYADSVK | IGRGGGYFDQ the result was 5.35 (1 of 3 replicates; controls 4 of 9).
With GFTFDDYAMH | GISWNSGSIGYAYSVK | VGRGGGYFNW the result was nd (0 of 3 replicates; controls 1 of 9).
With GFTFDDYAMW | GISWNSGSIGYAISVK | KGRGGGYFDY the result was 4.06 (1 of 3 replicates; controls 0 of 9).
With GFTFDDYAMH | EISWTSGSIGYADIVK | VGRGGGYFDY the result was 4.85 (1 of 3 replicates; controls 0 of 9).
With GFTFDDYAMH | GISLNFGSIGYADSVK | VGRGGGYFDH the result was 4.44 (3 of 3 replicates; controls 3 of 9).
With GFTFDDYAMH | GISWNSGSITYLDSVK | VGRGGGKFDY the result was nd (0 of 3 replicates; controls 0 of 9).
With GFTFDDYAMH | GISWNSPSIVYADSVK | VGRGGWYFDY the result was nd (0 of 3 replicates; controls 1 of 9).
With GFTFYDYAMH | GISWNSGSIGYADSVK | VLRGGDYFDY the result was 1.30 (3 of 3 replicates; controls 2 of 9).
With GFTFDDKAMH | QISWNSGSIGYADSVY | VGRGGGYFDY the result was nd (0 of 3 replicates; controls 0 of 9).
With GFTFDDYAMH | GVSWNAGSIGYMDSVK | VGRGGGYFDY the result was 4.66 (2 of 3 replicates; controls 4 of 9).
With GLTFDDYAMH | GISWNSGSTGYADSVK | VGRGGGYFTY the result was 3.64 (1 of 3 replicates; controls 1 of 9).
With GFTFWDYAMH | GISWNTGGIGYADSVK | VGRGGGYFDY the result was 4.91 (2 of 3 replicates; controls 4 of 9).
With GFTFQDYNMH | GISWNSGGIGYADSVK | VGRGGGYFDY the result was nd (0 of 3 replicates; controls 0 of 9).
With GFWFDDYAEH | GISWNSGSIGYADSVK | VKRGGGYFDY the result was nd (0 of 3 replicates; controls 0 of 9).
With GFTFDDYAMH | GISWVSGSIDYADSVK | VGEGGGYFDY the result was nd (0 of 3 replicates; controls 1 of 9).
With GFTFDDYEMH | GISWNSGSIGYADSVK | YGRGGGYFAY the result was nd (0 of 3 replicates; controls 0 of 9).
With GFTFDDYAMH | GISWNSGSWRYADSVQ | VGRGGGYFDY the result was 5.10 (2 of 3 replicates; controls 2 of 9).
With GFTIDDYAMH | GISWNSGSIGYADSVQ | VGRGGGYSDY the result was nd (0 of 3 replicates; controls 0 of 9).
With GFTFDDYAMA | GISWNSGSIGYADYFK | VGRGGGYFDY the result was 3.48 (1 of 3 replicates; controls 0 of 9).
With GFTGDDYAMH | GISPNSGNIGYADSVK | VGRGGGYFDY the result was 4.05 (1 of 3 replicates; controls 2 of 9).
With GFTFDDYAMH | GKSWNSGSRGYADSVK | VGRGGGYFYY the result was 4.61 (1 of 3 replicates; controls 2 of 9).
With GFTFDDYAMH | GISWPSGSIGVASSVK | VGRGGGYFDY the result was 3.90 (2 of 3 replicates; controls 3 of 9).
With GFTFDYYAMH | GISWNSGSIGYADSVK | VGRGMGYFDY the result was nd (0 of 3 replicates; controls 0 of 9).
With GFTFDDYAMH | GISWNSGSIGEADSVK | VGKGGGYSDY the result was nd (0 of 3 replicates; controls 0 of 9).
With GFTFDDYARH | GIFWNSGSIGYADSVK | VGRGGGYFDQ the result was 5.62 (2 of 3 replicates; controls 3 of 9).
With GFTFDNYFMH | GISWNSGSAGYADSVK | VGRGGGYFDY the result was 4.75 (1 of 3 replicates; controls 0 of 9).
With GFTFDDYAMS | GISWQSGSIGYADSVK | VGRGGGTFDY the result was 5.00 (3 of 3 replicates; controls 4 of 9).
With SFTFDDYAMH | GISWNSGQIGYADSVK | VGRGGGYFDY the result was 4.80 (1 of 3 replicates; controls 2 of 9).
With GPTFDDYAMH | GIQWNSGSIGYADSVK | VGRGGGYFLY the result was nd (0 of 3 replicates; controls 2 of 9).
With GFTFDDYAMH | GISWNSGSINYADSID | VGRGGGYFDY the result was 3.12 (2 of 3 replicates; controls 2 of 9).
With GFTFDDYAMH | GISWNSESHGYADSVK | VGRGGGYFDY the result was 2.15 (3 of 3 replicates; controls 2 of 9).
With GFTFDDYAMR | GISWNSGSITYADSVK | VGFGGGYFDY the result was 5.13 (3 of 3 replicates; controls 4 of 9).
With GFTFDDYAMH | GISWNSGSIGYNDSVK | VGMGGGYFDY the result was 3.09 (2 of 3 replicates; controls 0 of 9).
With GFTFDDYAMH | MISWNSGSIGALDSVK | VGRGGGYFDY the result was 5.27 (2 of 3 replicates; controls 4 of 9).
With GFTFDDYAPH | GIWWNSGSIGYADSVK | VGRGGGYFYY the result was 4.90 (2 of 3 replicates; controls 5 of 9).
With GFTFDDYAMK | GIYWNSGSIHYADSVK | VGRGGGYFDY the result was nd (0 of 3 replicates; controls 0 of 9).
With GFTFDDYAMH | GISWNSQSIGYADSVK | VGRGWGYEDY the result was 1.39 (3 of 3 replicates; controls 0 of 9).
With GFTFDDYAMH | QISWNSGSIGYADSNK | VGHGGGYFDY the result was nd (0 of 3 replicates; controls 1 of 9).
With GFTFDDYAMH | GISWNSGSIGYADSVK | FGRGGGYQDE the result was 5.30 (2 of 3 replicates; controls 3 of 9).

2 of these entries, quoted again:

CDR-H1	CDR-H2	CDR-H3	log10 Kd (nM), mean	seen in	empty controls
GFTFDDYAMH	GISLNFGSIGYADSVK	VGRGGGYFDH	4.44	3/3	3/9
GPTFDDYAMH	GIQWNSGSIGYADSVK	VGRGGGYFLY	nd	0/3	2/9

As a blank, each scFv also met three strains without target: over library AAYL51, 21% of these pairings were detected, typically at 4.54 and seldom below 3.26. For each scFv, signals with the empty controls are counted beside the result. Parent in this assay: reference entry 1.86, copy in this library 0.88.